# Data from patent US11702475B2, “Cysteine engineered fibronectin type III domain binding molecules” (Janssen Biotech, Inc., priority 2013, dated 2023).
# Tests used:
# [1] = tested on: H292-HGF human lung cancer xenograft; assay: Efficacy of bispecific molecule and other inhibitors in subcutaneous H292-HGF xenograft model; format: in vivo, SCID/Beige mice
# [2] = mouse, in vivo
substance,measurement,setting,value
cetuximab,tumor growth delay compared with the vehicle group,"[1]; at tumor size of 1,000 mm^3, doses as in E46",17 days
same,Tumor volume (mm^3),"[1]; day 7 after tumor inoculation (start of treatment), mean ± SEM, bispecific 25 mg/kg, Crizotinib 50 mg/kg, Erlotinib 50 mg/kg, Cetuximab 1 mg/mouse",139 ± 10 mm^3
same,Tumor volume (mm^3),"[1]; day 9 after tumor inoculation, mean ± SEM, bispecific 25 mg/kg, Crizotinib 50 mg/kg, Erlotinib 50 mg/kg, Cetuximab 1 mg/mouse",168 ± 13 mm^3
same,Tumor volume (mm^3),"[1]; day 13 after tumor inoculation, mean ± SEM, bispecific 25 mg/kg, Crizotinib 50 mg/kg, Erlotinib 50 mg/kg, Cetuximab 1 mg/mouse",212 ± 20 mm^3
same,Tumor volume (mm^3),"[1]; day 16 after tumor inoculation, mean ± SEM, bispecific 25 mg/kg, Crizotinib 50 mg/kg, Erlotinib 50 mg/kg, Cetuximab 1 mg/mouse",252 ± 28 mm^3
same,Tumor volume (mm^3),"[1]; day 20 after tumor inoculation, mean ± SEM, bispecific 25 mg/kg, Crizotinib 50 mg/kg, Erlotinib 50 mg/kg, Cetuximab 1 mg/mouse",371 ± 48 mm^3
same,T/C value,"[1]; day 23, doses as in E46",28%
same,T/C (%),"[1]; day 23, mean volume of treated vs control group, doses as in the Treatment column",28%
same,Tumor Size (mm^3) at day 23,"[1]; day 23, mean ± SEM, bispecific 25 mg/kg, Crizotinib 50 mg/kg, Erlotinib 50 mg/kg, combination 50 mg/kg + 50 mg/kg, Cetuximab 1 mg/mouse",485 ± 61 mm^3
same,mean tumor size,"[1]; day 23 after tumor inoculation, ECB38 25 mg/kg, Crizotinib 50 mg/kg, Erlotinib 50 mg/kg, Cetuximab 1 mg/mouse",485 mm^3
same,Tumor volume (mm^3),"[1]; day 23 after tumor inoculation, mean ± SEM, bispecific 25 mg/kg, Crizotinib 50 mg/kg, Erlotinib 50 mg/kg, Cetuximab 1 mg/mouse",485 ± 61 mm^3
same,Tumor volume (mm^3),"[1]; day 27 after tumor inoculation, mean ± SEM, bispecific 25 mg/kg, Crizotinib 50 mg/kg, Erlotinib 50 mg/kg, Cetuximab 1 mg/mouse",640 ± 82 mm^3
same,Tumor volume (mm^3),"[1]; day 30 after tumor inoculation, mean ± SEM, bispecific 25 mg/kg, Crizotinib 50 mg/kg, Erlotinib 50 mg/kg, Cetuximab 1 mg/mouse",869 ± 100 mm^3
same,antitumor activity (in words),[1]; doses as in E46,significant antitumor activities
same,T-C (days) at 1000 mm^3,"[1]; tumor growth delay to mean tumor size 1000 mm^3 vs vehicle, doses as in the Treatment column",17 days
same,toxicity / body weight loss / tolerability (in words),[2],well tolerated
